pIC50: −log10 of the molar value.

The assay in a line: Inhibition of HIV1 YU2 gp120 binding to CD4 expressing Cf2Th-CD4/CCR5 cells assessed as inhibition of viral infection after 48 hrs.
With `CC1(C)CC(NC(=O)C(=O)Nc2ccc(Cl)c(F)c2)CC(C)(C)[N+]1(C)[O-]` (stereo not given) [4-(2-(4-chloro-3-fluorophenylamino)-2-oxoacetamido)-1,2,2,6,6-pentamethylpiperidine 1-oxide], the pIC50 (usually the IC50 on a negative log10 scale, so that one unit is a factor of ten) is less than 4.00.
On to `O=C(Nc1ccc(Cl)c(F)c1)C(=O)NC1CCN(C2CCCCC2)C1` (stereo not given) [N1-(4-chloro-3-fluorophenyl)-N2-(1-cyclohexylpyrrolidin-3-yl)oxalamide], for which the negative logarithm of the IC50 (pIC50) is 4.24.
Regarding `O=C(NCC1CCN(C2CC2)C1)C(=O)Nc1ccc(Cl)c(F)c1` (stereo not given) [N1-(4-chloro-3-fluorophenyl)-N2-((1-cyclopropylpyrrolidin-3-yl)methyl)oxalamide], the pIC50 is 4.47.
As to `CCN1CCC(CNC(=O)C(=O)Nc2ccc(Cl)c(F)c2)CC1` [N1-(4-chloro-3-fluorophenyl)-N2-((1-ethylpiperidin-4-yl)methyl)oxalamide], the pIC50 was less than 4.00.
With `CC1(C)CC(NC(=O)C(=O)Nc2ccc(Cl)cc2)CC(C)(C)N1` [N-(4-chlorophenyl)-N'-(2,2,6,6-tetramethylpiperidin-4-yl)-oxalamide] the figure was 4.13.

Values taken from BindingDB's records for doi:10.1016/j.bmc.2010.11.049 (Bryn Mawr College, 2011).
